Reference: patent US20070060508A1, “Binding molecules” (priority 2002, published 2007)

Tests used:
Daudi cells = assay: Cytotoxicity test: NK effector cells (YT) incubated with tumor target cells (Daudi) plus test peptide, LDH release; assay type: cell-based; details: positive control, Human IL-2 5 nM, YT and Daudi cells 1:10, 16 h
Method: For the cytotoxicity measurement, NK cells, which specifically kill tumor cells, as effector cells were incubated with tumor cells as target cells in the presence of the test peptides. The cytotoxicity measurement was performed by measuring the release of lactate dehydrogenase (LDH) according to the standard protocol by a cytotoxicity test kit (Promega, Germany) and in a microwell plate reader. As NK cells (E), YT cells (DSMZ, Germany) were used. As target cells (T), Daudi cells (DSMZ, Germany) were used. YT and Daudi cells were seeded in microwell plates at a ratio of 1:10 and incubated in the presence of 0.3, 3, 30:M test peptide for 16 h. Human IL-2 (Sigma) in a concentration of 5 nM served as the positive control.
On the next day, 10:l of lysis buffer each were added to the cells and the cells were incubated for additional 2 h. Subsequently, 5:l of the agent were transferred into a second microwell plate and combined with 50:l of substrate buffer. After a 30 min incubation, the reaction was terminated by 50:l of stop solution and the absorption of the formed MTT color complex was measured in a microwell plate reader.

[1] = cited from earlier work
[2] = human, in vivo; cited from earlier work

IL-2: Human IL-2 (Sigma), cytokine of 133 amino acids, positive control; recombinant product Aldesleukin, Proleukin
Cytotoxicity (Daudi cells): 60% | treatment-related mortality rate ([1]; observed during a study): 4% | treated patients showing a reaction to the IL2 therapy ([1]; patients, tumor therapy): about 30% | half life [2]: below 10 min
